Source: PubChem BioAssay (NCI)
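Exposure lasted 48 hours, with cells grown in 96-well plates and compounds tested at five concentrations. TGI: concentration producing complete growth inhibition.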

Columns and labels:
Test in all cases: NCI tumour cell line growth inhibition, 48 h
COLO 205 colon = system: COLO 205 colon
A498 renal = system: A498 renal
UACC-62 melanoma = system: UACC-62 melanoma
OVCAR-4 ovarian = system: OVCAR-4 ovarian
HCC-2998 colon = system: HCC-2998 colon
HS 578T breast = system: HS 578T breast
MCF7 breast = system: MCF7 breast
PC-3 prostate = system: PC-3 prostate
MDA-MB-435 = system: MDA-MB-435
IGROV1 ovarian = system: IGROV1 ovarian
SF-268 CNS = system: SF-268 CNS
HCT-116 colon = system: HCT-116 colon
SW-620 colon = system: SW-620 colon
TK-10 renal = system: TK-10 renal
NCI-H522 lung = system: NCI-H522 lung
HL-60(TB) leukemia = system: HL-60(TB) leukemia
HOP-92 NSCLC = system: HOP-92 NSCLC
UO-31 renal = system: UO-31 renal
LOX IMVI melanoma = system: LOX IMVI melanoma
MALME-3M melanoma = system: MALME-3M melanoma
SK-MEL-28 melanoma = system: SK-MEL-28 melanoma
ACHN renal = system: ACHN renal
SNB-75 CNS = system: SNB-75 CNS
MDA-MB-231 breast = system: MDA-MB-231 breast
SF-295 CNS = system: SF-295 CNS
MOLT-4 leukemia = system: MOLT-4 leukemia
SN12C renal = system: SN12C renal
SNB-19 CNS = system: SNB-19 CNS
U251 CNS = system: U251 CNS
CCRF-CEM leukemia = system: CCRF-CEM leukemia
HOP-62 NSCLC = system: HOP-62 NSCLC
KM12 colon = system: KM12 colon
NCI/ADR-RES ovarian = system: NCI/ADR-RES ovarian
NCI-H226 lung = system: NCI-H226 lung
SR leukemia = system: SR leukemia
HCT-15 colon = system: HCT-15 colon
RPMI-8226 leukemia = system: RPMI-8226 leukemia
T-47D breast = system: T-47D breast
MDA-N = system: MDA-N
NCI-H322M lung = system: NCI-H322M lung
OVCAR-8 ovarian = system: OVCAR-8 ovarian
M14 melanoma = system: M14 melanoma
SK-OV-3 ovarian = system: SK-OV-3 ovarian
SK-MEL-5 melanoma = system: SK-MEL-5 melanoma
NCI-H23 lung = system: NCI-H23 lung
786-0 renal = system: 786-0 renal
HT29 colon = system: HT29 colon
A549 NSCLC = system: A549 NSCLC
BT-549 breast = system: BT-549 breast
K-562 leukemia = system: K-562 leukemia
OVCAR-5 ovarian = system: OVCAR-5 ovarian
SF-539 CNS = system: SF-539 CNS
DU-145 prostate = system: DU-145 prostate
OVCAR-3 ovarian = system: OVCAR-3 ovarian
NCI-H460 lung = system: NCI-H460 lung

Measured: TGI

CN1C(NC#N)=NP(=O)(O)C1(C)C
> 100 µM: all assays above
